Source: ChEMBL document CHEMBL5316269, “Rational Design of a New RXR Agonist Scaffold Enabling Single-Subtype Preference for RXRα, RXRβ, and RXRγ” (J Med Chem, 2023)
Calls of active or inactive are those of the source. The rule behind the calls is not given here.

The chains behind the UniProt entries cited, without tags or fusion partners. Where a name states a change or a piece, a line headed by the entry shows the natural chain unless it says otherwise.
UniProt P10276, whole entry: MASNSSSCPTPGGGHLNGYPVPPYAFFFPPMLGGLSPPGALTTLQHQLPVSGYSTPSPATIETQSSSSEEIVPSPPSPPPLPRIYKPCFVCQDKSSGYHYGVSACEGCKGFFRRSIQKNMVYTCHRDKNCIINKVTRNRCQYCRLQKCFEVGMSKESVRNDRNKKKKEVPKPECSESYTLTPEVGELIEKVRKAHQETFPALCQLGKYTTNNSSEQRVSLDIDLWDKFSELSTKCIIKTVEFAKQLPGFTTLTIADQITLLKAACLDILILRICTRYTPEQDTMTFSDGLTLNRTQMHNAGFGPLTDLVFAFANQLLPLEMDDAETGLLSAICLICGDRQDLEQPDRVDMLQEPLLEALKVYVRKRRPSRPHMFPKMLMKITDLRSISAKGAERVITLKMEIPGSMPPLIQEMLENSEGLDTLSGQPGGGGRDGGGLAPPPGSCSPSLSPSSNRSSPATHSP
UniProt P13631, whole entry: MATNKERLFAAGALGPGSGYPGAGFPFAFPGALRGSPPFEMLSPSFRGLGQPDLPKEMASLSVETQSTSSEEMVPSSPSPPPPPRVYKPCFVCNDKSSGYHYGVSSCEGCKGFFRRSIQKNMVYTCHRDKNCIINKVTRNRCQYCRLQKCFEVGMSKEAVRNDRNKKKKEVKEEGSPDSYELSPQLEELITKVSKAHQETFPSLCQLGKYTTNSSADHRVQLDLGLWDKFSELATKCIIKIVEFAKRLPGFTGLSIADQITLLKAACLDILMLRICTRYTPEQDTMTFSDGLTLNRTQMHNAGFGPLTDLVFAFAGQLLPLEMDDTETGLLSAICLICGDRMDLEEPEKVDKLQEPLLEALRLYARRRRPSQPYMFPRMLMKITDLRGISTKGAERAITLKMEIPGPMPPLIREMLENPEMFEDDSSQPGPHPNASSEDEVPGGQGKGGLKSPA
UniProt P37231: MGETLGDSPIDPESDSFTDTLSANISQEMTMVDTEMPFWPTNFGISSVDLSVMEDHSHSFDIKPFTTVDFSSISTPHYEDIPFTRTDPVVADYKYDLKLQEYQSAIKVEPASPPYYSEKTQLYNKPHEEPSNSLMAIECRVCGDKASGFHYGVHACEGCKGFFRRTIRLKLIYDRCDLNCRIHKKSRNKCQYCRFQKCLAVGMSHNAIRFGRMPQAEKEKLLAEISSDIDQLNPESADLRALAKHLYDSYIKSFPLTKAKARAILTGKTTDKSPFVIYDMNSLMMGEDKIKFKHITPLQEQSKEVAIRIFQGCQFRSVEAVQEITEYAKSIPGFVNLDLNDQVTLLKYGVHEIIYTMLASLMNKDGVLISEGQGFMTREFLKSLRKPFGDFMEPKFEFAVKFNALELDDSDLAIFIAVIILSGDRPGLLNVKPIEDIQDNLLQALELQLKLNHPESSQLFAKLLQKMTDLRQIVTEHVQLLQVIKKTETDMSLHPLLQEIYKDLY
UniProt Q13133, whole entry: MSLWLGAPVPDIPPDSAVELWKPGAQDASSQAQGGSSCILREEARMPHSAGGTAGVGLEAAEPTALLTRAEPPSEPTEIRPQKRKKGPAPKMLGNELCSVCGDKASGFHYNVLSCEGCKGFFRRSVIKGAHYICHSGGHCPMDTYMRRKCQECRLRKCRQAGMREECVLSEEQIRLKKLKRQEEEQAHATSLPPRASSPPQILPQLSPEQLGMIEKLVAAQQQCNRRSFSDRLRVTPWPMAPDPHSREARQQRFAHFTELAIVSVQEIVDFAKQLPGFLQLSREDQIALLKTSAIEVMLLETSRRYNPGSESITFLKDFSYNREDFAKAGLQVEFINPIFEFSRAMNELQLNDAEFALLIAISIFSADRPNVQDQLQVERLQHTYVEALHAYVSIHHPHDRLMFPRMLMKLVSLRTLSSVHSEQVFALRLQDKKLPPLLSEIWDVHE

What was measured:
[1] = target: T1, Thyroid hormone receptor beta (Homo sapiens) (UniProt P10828); experiment: Agonist activity at human GAL4-fused THRbeta LBD expressed in human HEK293T cells cotransfected with pFR-Luc and pRL-SV40 assessed as increase in luciferase activity at 1 uM incubated for 16 hrs by Dual-Glo luciferase assay relative to control; format: cell-based
T1 sequence (whole entry): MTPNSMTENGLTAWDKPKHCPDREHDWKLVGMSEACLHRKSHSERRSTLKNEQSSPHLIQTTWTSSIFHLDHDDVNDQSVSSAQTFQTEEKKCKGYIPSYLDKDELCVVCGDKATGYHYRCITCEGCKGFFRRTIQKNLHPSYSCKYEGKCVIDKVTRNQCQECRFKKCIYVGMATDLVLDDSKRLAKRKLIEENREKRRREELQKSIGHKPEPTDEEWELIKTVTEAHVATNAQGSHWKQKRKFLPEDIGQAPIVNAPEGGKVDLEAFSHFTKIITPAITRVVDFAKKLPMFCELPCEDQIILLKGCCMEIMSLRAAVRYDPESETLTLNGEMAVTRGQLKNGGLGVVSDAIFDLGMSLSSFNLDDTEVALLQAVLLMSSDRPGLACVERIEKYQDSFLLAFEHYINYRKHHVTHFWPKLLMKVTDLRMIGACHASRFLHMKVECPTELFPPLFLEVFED

[2] = target: Retinoic acid receptor alpha (Homo sapiens) (UniProt P10276); experiment: Agonist activity at human GAL4-fused RARalpha LBD expressed in human HEK293T cells cotransfected with pFR-Luc and pRL-SV40 assessed as increase in luciferase activity at 1 uM incubated for 16 hrs by Dual-Glo luciferase assay relative to control; format: cell-based
[3] = target: Retinoic acid receptor gamma (Homo sapiens) (UniProt P13631); experiment: Agonist activity at human GAL4-fused RARgamma LBD expressed in human HEK293T cells cotransfected with pFR-Luc and pRL-SV40 assessed as increase in luciferase activity at 1 uM incubated for 16 hrs by Dual-Glo luciferase assay relative to control; format: cell-based
[4] = target: Peroxisome proliferator-activated receptor gamma (Homo sapiens) (UniProt P37231); experiment: Agonist activity at human GAL4-fused PPARgamma LBD expressed in human HEK293T cells cotransfected with pFR-Luc and pRL-SV40 assessed as increase in luciferase activity at 1 uM incubated for 16 hrs by Dual-Glo luciferase assay relative to control; format: cell-based
[5] = target: T2, Peroxisome proliferator-activated receptor delta (Homo sapiens) (UniProt Q03181); experiment: Agonist activity at human GAL4-fused PPARdelta LBD expressed in human HEK293T cells cotransfected with pFR-Luc and pRL-SV40 assessed as increase in luciferase activity at 1 uM incubated for 16 hrs by Dual-Glo luciferase assay relative to control; format: cell-based
T2 sequence (whole entry): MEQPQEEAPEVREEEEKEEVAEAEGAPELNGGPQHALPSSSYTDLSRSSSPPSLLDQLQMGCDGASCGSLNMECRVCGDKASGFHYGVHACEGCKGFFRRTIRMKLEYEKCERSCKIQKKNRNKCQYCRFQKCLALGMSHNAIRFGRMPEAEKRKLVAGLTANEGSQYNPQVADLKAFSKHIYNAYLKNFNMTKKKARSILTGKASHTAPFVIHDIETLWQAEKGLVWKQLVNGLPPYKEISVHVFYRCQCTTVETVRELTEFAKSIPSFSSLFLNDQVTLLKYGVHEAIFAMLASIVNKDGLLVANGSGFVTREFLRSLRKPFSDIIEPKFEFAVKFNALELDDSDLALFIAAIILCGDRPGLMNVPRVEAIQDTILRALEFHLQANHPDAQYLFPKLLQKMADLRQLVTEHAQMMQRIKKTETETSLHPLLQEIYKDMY

[6] = target: T3, Vitamin D3 receptor (Homo sapiens) (UniProt P11473); experiment: Agonist activity at human GAL4-fused VDR LBD expressed in human HEK293T cells cotransfected with pFR-Luc and pRL-SV40 assessed as increase in luciferase activity at 1 uM incubated for 16 hrs by Dual-Glo luciferase assay relative to control; format: cell-based
T3 sequence (whole entry): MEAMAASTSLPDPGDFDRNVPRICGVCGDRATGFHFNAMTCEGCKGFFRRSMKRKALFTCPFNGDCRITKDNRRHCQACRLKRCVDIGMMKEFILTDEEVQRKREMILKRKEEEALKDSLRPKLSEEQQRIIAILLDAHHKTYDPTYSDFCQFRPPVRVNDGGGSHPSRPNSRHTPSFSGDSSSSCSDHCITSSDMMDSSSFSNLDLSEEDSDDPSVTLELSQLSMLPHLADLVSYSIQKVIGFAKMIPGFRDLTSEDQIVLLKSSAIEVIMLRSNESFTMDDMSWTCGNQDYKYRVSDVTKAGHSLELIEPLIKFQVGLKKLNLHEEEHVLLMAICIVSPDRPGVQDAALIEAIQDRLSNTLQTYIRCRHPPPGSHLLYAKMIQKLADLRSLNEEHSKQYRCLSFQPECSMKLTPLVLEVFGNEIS

[7] = target: Oxysterols receptor LXR-alpha (Homo sapiens) (UniProt Q13133); experiment: Agonist activity at human GAL4-fused LXRalpha LBD expressed in human HEK293T cells cotransfected with pFR-Luc and pRL-SV40 assessed as increase in luciferase activity at 1 uM incubated for 16 hrs by Dual-Glo luciferase assay relative to control; format: cell-based
[8] = target: T4, Retinoic acid receptor RXR-alpha (Homo sapiens) (UniProt P19793); experiment: Agonist activity at human RARalpha in human Adipose tissue derived mesenchymal stem cells assessed as increase in adipogenesis at 1 uM incubated for 13 days with media exchanged every 48-72 hrs in presence of pioglitazone by Oil-red O staining based analysis; conditions: Adipose tissue derived mesenchymal stem cell, filed as agonist, time 13.0 day
T4 sequence (whole entry): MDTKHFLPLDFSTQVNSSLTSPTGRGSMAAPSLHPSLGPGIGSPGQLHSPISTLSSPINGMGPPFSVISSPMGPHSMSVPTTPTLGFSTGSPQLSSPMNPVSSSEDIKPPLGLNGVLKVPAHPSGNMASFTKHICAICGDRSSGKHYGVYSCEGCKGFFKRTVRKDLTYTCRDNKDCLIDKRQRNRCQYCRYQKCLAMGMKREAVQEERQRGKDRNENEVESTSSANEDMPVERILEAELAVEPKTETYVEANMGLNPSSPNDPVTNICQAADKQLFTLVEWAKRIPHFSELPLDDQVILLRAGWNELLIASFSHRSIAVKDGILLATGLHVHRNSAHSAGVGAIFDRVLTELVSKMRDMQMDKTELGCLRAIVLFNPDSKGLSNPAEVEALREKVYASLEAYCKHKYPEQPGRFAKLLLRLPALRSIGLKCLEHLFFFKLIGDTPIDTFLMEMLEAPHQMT

Activity [1]: 1% | Activity [2]: 1% | Activity [3]: 1% | Activity [4]: 3% | Activity [5]: 2% | Activity [6]: 3% | Activity [7]: 3% | Activity [8]: Active
SMILES: Cc1cc(COc2ccc(C)c3c2CCC3)ccc1CCC(=O)O
